Source: publication PMC5225454, “A Comprehensive Evaluation of the Activity and Selectivity Profile of Ligands for RGD-binding Integrins” (Scientific Reports, 2017)

Amino acid sequences for entries named in this document (tags omitted). Residues count along the entry.
UniProt P05106, 27-718 limits assumed: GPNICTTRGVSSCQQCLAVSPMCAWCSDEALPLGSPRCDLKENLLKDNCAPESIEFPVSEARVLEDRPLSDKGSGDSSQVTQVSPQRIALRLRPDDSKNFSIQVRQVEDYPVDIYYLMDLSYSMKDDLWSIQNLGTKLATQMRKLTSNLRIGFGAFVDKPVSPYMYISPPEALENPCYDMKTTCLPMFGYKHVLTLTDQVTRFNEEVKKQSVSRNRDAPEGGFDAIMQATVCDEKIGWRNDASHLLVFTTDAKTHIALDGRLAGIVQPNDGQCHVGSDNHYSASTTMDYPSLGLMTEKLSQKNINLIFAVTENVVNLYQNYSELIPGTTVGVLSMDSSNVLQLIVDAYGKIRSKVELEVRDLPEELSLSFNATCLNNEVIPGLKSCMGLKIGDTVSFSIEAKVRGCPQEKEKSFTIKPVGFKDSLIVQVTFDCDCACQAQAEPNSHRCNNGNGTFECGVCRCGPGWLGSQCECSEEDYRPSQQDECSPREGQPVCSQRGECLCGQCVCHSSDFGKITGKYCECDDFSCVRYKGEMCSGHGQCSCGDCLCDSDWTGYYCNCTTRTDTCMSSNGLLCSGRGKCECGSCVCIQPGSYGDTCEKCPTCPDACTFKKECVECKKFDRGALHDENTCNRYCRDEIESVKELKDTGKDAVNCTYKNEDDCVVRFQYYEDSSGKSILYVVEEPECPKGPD
UniProt P05106, 27-788 limits assumed: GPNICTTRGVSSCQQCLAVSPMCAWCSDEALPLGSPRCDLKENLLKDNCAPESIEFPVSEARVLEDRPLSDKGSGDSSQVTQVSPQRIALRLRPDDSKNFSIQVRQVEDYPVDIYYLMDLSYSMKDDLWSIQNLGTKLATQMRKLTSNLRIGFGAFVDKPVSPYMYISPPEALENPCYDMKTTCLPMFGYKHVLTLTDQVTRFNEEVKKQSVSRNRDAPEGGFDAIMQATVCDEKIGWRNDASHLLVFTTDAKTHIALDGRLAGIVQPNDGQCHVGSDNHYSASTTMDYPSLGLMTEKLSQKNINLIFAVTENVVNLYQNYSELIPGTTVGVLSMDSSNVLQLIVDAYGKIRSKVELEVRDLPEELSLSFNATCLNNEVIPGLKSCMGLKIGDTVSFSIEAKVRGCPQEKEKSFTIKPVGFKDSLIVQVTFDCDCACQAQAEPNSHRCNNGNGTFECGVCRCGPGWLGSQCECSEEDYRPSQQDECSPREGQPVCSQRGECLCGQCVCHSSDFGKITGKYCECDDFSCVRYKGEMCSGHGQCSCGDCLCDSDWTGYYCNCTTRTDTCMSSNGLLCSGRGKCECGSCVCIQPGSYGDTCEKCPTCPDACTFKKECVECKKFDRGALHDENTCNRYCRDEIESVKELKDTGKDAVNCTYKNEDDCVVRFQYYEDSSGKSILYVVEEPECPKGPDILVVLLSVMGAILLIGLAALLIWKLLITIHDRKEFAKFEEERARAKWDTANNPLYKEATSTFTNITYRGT
UniProt P06756, 31-992 limits assumed: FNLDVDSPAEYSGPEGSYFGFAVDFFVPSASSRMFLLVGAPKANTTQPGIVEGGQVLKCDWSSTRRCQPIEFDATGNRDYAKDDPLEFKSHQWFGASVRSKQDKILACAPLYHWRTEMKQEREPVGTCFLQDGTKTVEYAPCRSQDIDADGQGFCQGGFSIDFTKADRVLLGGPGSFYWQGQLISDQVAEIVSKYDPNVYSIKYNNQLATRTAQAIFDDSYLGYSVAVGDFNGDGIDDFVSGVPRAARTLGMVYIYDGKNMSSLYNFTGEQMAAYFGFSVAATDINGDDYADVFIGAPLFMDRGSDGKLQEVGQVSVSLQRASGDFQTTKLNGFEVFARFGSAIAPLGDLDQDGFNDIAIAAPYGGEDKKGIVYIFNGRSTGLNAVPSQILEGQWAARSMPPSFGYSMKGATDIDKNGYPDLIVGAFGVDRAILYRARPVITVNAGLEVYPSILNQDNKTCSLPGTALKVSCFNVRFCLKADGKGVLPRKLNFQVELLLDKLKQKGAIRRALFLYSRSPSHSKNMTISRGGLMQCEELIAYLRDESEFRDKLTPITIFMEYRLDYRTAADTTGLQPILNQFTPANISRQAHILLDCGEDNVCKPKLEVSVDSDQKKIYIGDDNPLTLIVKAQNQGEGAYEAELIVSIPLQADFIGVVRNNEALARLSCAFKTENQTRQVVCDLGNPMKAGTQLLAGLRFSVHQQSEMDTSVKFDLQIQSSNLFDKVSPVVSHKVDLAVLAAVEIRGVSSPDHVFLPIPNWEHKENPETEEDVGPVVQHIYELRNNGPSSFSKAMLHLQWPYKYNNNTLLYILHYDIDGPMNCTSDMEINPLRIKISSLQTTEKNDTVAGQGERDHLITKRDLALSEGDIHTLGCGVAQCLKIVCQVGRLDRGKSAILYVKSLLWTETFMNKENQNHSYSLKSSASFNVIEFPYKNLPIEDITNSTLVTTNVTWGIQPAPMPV
UniProt P06756, 31-1048 limits assumed: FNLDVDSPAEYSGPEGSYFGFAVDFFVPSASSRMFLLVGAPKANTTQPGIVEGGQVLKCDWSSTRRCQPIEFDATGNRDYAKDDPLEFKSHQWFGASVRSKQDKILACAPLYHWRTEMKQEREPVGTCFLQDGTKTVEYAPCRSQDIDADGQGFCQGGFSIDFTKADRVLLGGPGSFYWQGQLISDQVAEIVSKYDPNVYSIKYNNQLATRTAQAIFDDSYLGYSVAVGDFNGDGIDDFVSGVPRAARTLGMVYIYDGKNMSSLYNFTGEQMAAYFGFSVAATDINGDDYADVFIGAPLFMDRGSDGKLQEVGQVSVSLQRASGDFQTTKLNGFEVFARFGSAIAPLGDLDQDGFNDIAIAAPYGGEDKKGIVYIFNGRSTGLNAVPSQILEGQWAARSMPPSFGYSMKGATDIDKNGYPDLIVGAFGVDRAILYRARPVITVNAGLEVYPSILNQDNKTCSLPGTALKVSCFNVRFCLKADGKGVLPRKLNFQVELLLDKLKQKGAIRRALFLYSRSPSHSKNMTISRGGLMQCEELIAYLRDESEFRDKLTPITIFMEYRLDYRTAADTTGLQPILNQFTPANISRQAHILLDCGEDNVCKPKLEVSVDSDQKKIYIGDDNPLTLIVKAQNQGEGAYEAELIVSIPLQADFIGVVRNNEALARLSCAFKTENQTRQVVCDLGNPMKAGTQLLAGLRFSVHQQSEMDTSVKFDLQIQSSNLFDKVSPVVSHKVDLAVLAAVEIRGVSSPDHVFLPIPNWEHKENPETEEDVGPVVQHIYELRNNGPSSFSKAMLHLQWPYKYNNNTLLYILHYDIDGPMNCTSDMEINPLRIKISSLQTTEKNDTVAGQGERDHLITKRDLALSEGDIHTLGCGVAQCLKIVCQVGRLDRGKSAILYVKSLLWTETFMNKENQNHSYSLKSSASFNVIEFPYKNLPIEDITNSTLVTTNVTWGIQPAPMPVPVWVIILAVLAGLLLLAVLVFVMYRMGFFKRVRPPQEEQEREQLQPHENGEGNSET
UniProt P18084, 24-799 limits assumed: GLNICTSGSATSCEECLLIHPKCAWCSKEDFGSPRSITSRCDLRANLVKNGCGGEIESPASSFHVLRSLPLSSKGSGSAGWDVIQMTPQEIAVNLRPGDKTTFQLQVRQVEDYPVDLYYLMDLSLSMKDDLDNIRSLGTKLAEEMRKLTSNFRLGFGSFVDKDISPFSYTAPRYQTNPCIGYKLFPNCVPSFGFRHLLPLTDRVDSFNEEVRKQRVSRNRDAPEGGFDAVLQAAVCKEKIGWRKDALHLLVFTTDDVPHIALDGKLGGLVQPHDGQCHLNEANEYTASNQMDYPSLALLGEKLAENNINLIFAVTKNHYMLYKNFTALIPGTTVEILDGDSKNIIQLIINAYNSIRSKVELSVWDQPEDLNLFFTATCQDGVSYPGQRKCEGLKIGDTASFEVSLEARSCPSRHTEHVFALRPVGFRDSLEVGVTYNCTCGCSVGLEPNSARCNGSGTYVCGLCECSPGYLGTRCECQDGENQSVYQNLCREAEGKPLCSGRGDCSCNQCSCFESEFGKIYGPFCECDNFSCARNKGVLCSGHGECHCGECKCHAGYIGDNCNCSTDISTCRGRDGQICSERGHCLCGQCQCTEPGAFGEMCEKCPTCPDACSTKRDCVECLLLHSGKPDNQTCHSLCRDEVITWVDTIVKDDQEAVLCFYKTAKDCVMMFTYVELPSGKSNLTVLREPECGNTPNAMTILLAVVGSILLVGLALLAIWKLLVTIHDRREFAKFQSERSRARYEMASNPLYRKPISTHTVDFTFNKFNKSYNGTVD
UniProt P26012, 43-684 limits assumed: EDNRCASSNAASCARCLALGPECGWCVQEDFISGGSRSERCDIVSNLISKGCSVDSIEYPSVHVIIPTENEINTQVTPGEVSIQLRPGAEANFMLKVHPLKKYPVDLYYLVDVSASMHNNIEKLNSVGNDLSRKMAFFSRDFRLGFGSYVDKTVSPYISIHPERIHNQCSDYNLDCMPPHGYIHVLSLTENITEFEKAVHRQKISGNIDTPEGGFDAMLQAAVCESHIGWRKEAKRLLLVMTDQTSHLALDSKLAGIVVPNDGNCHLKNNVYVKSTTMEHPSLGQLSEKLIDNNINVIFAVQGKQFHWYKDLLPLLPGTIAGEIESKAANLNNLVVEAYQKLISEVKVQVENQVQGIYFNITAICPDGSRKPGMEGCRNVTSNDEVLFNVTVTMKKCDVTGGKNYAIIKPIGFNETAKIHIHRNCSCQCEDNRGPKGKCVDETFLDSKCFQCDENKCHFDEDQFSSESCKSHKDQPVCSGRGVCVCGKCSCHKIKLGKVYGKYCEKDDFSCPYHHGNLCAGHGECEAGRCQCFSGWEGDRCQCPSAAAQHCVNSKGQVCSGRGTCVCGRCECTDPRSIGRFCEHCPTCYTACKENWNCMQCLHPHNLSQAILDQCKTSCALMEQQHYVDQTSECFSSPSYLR
UniProt P05556, 21-728 limits assumed: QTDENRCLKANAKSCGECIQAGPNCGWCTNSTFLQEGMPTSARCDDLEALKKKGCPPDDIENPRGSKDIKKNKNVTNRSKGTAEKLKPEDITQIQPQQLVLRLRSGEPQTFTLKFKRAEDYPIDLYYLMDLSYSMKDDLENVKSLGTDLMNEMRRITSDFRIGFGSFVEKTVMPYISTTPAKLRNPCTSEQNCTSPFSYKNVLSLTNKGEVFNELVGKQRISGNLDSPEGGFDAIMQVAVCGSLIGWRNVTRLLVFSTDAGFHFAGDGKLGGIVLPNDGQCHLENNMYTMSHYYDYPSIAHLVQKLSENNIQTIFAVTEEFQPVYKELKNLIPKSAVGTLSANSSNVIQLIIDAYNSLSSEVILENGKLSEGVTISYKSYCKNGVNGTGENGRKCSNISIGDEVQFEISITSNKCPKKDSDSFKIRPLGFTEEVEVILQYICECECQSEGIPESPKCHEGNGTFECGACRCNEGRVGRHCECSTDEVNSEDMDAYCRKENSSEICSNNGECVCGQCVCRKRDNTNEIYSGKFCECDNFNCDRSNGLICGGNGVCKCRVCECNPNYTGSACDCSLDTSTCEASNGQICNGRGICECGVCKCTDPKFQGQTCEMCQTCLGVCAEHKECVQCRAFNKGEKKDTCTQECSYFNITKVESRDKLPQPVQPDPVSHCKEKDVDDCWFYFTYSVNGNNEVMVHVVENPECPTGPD
UniProt P08648, 42-995 limits assumed: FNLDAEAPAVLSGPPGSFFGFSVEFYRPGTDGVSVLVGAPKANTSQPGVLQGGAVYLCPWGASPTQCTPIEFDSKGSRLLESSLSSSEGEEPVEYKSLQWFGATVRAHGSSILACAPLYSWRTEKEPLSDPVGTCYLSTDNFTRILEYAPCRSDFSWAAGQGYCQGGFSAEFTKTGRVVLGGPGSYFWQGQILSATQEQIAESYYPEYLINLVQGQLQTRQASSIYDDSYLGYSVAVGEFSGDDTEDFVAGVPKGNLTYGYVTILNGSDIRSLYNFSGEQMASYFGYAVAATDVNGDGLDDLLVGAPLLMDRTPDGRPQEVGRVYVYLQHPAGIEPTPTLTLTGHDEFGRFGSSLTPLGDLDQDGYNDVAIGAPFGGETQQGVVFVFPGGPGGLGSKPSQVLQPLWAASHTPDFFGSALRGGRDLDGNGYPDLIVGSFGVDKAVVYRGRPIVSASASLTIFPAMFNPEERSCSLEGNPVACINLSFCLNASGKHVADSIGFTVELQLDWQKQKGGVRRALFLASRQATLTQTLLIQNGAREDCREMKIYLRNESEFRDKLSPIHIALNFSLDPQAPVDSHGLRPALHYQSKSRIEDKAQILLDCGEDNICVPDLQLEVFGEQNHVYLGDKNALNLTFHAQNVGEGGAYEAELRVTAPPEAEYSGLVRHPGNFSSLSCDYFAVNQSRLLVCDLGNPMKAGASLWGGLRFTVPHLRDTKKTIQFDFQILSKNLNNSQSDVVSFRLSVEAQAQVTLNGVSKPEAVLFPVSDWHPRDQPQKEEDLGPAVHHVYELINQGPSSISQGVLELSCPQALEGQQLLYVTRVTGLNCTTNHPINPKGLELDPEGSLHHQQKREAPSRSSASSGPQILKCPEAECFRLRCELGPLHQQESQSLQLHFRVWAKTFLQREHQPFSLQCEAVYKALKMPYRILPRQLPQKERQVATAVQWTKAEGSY

Columns and labels:
human αvβ3-integrin = human αvβ3-integrin (Homo sapiens, UniProt P05106+P06756); assay: ELISA-like solid-phase binding assay, soluble integrin αvβ3 vs coated vitronectin; details: read-out: IC50 αvβ3, referenced to internal standard
human αvβ5-integrin = human αvβ5-integrin (Homo sapiens, UniProt P06756+P18084); assay: ELISA-like solid-phase binding assay, soluble integrin αvβ5 vs coated vitronectin; details: read-out: IC50 αvβ5, referenced to internal standard
human αvβ6-Integrin = human αvβ6-Integrin (Homo sapiens, UniProt P06756+P18564); assay: ELISA-like solid-phase binding assay, soluble integrin αvβ6 vs coated LAP (TGF-β); details: read-out: IC50 αvβ6, referenced to internal standard
human αvβ8-Integrin = human αvβ8-Integrin (Homo sapiens, UniProt P06756+P26012); assay: ELISA-like solid-phase binding assay, soluble integrin αvβ8 vs coated LAP (TGF-β); details: read-out: IC50 αvβ8, referenced to internal standard
α5β1 integrin = α5β1 integrin (Homo sapiens, UniProt P05556+P08648); assay: ELISA-like solid-phase binding assay, soluble integrin α5β1 vs coated fibronectin; details: read-out: IC50 α5β1, referenced to internal standard
[1] = target: human platelet integrin αIIbβ3 (Homo sapiens, UniProt P05106+P08514); assay: ELISA-like solid-phase binding assay, soluble integrin αIIbβ3 vs coated fibrinogen; details: read-out: IC50 αIIbβ3, referenced to internal standard

| Compound | IC50 (human αvβ3-integrin) [nM] | IC50 (human αvβ5-integrin) [nM] | IC50 (human αvβ6-Integrin) [nM] | IC50 (human αvβ8-Integrin) [nM] | IC50 (α5β1 integrin) [nM] | IC50 [1] [nM] |
| --- | --- | --- | --- | --- | --- | --- |
| COc1ccnc(NCCCOc2ccc(C[C@@H](CC(=O)O)NC(=O)c3ccc(OC(C)C)cc3)cc2)c1 (single isomer, unassigned) | 0.65 | 199 | > 10000 | > 10000 | 108 | > 10000 |
| Cc1cc(OC(C)C)cc(C)c1C(=O)N[C@@H](CNC(=O)CNC(=O)c1cccc(NC(=N)N)c1)C(=O)O | > 10000 | > 10000 | 433 | 37 | 2.3 | > 10000 |
